Assay results from patent US4767761A, “Ornithine derivatives and their use as methotrexate-resistant cell inhibitors” (priority 1987, dated 1988).

What was measured:
[1] = system: L 1210/R81 murine leukemia cells; experiment: Cytotoxicity assay against L 1210/R81 murine leukemia cells, 48 hours; assay type: cell-based; conditions: Mus musculus, L1210 ( R81), read-out: L1210/R81 cell growth inhibition IC50
Protocol: A cytotoxicity assay was carried out for the same group of compounds against L 1210 and L 1210/R81 murine leukemia cells cultured for 48 hours in RPMI 1640 medium containing 10% fetal bovine serum, using the procedure of Mosman, J. Immunol. Meth., Vol. 65, 55-63 (1983).

[2] = system: L 1210 murine leukemia cells; experiment: Cytotoxicity assay against L 1210 murine leukemia cells, 48 hours; assay type: cell-based; conditions: Mus musculus, L1210, RPMI 1640, 10% fetal bovine serum, read-out: L1210 cell growth inhibition IC50
[3] = molecular target: T1, DHFR (Dihydrofolate Reductase) from L 1210/R81 murine leukemia cells (Mus musculus, UniProt P00375); conditions: read-out: DHFR IC50, range of values; range of six separate experiments on different days (footnote a, Table 1)
T1 sequence (P00375 1-187): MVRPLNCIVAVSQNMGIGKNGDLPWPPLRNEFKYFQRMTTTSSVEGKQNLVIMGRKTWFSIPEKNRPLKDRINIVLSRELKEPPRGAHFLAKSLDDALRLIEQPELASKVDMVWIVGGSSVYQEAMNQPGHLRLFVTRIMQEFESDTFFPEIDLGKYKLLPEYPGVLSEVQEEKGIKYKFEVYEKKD

[4] = system: MTX-resistant SCC15/R1 and SCC25/R1 sublines; experiment: Growth inhibition of MTX-resistant SCC15/R1 and SCC25/R1 sublines (joint statement); conditions: result in words

Nc1nc(N)c2nc(CNc3ccc(C(=O)N[C@@H](CCCNC(=O)CCC(=O)O)C(=O)O)cc3)cnc2n1 [Compound 3]
IC50 ([1]; 48 hours, RPMI 1640, 10% fetal bovine serum): 54 µM | IC50 [2]: 37 nM

Nc1nc(N)c2nc(CNc3ccc(C(=O)N[C@@H](CCCNC(=O)c4ccccc4C(=O)O)C(=O)O)cc3)cnc2n1 [Compound 7, N^α -(4-Amino-4-deoxypteroyl)-N^67-hemi-phthaloyl-L-Ornithine]
IC50 ([1]; 48 h): 52 µM | IC50 [3]: 0.11 to 1.4 nM | potency against both resistant cells compared with MTX against the parental cells [4]: exceeded that of MTX against the parental cells

Like-named read-outs stand apart in the source and are kept apart here.
